Experiments:
Homo sapiens [1] = organism: Homo sapiens; assay: Selectivity ratio of IC50 for Aurora-B autophosphorylation at Thr232 in human HCT116 cells to IC50 for Aurora-A autophosphorylation at Thr288 in human HCT116 cells; format: cell-based
Homo sapiens [2] = organism: Homo sapiens; assay: Selectivity ratio of IC50 for Aurora-A autophosphorylation at Thr288 in human HCT116 cells to IC50 for Aurora-B autophosphorylation at Thr232 in human HCT116 cells; format: cell-based

Compound | Ratio IC50 (Homo sapiens [1]) | Ratio IC50 (Homo sapiens [2])
CCN(C)Cc1cccc(NC(=O)Nc2ccc(CCNc3ncnc4oc(-c5ccccc5)c(Cl)c34)cc2)c1 | > 75.6 | 
CN(C)Cc1cccc(NC(=O)Nc2ccc(CCNc3ncnc4oc(-c5ccccc5)c(Cl)c34)cc2)c1 | > 167 | 
O=C(Nc1ccccc1)Nc1ccc(CCNc2ncnc3oc(-c4ccccc4)c(Cl)c23)cc1 |  | 2
CN(C)Cc1ccccc1NC(=O)Nc1ccc(CCNc2ncnc3oc(-c4ccccc4)c(Cl)c23)cc1 |  | 3.1
O=C(Nc1ccc(CCNc2ncnc3oc(-c4ccccc4)c(Cl)c23)cc1)Nc1ccccc1CN1CCC(O)CC1 |  | 11.4
